Results taken from US11826344B2, “Composition, method of manufacture, and use of site-specific delivery of bruceolides for treatment of cancer and other diseases” (HOWARD UNIVERSITY, priority 2015, dated 2023).

Test system: Prostate cancer lines PC3 and LNCaP
Assay: Preliminary cytotoxicity study of brusatol solution on prostate cancer cell lines (FIG. 1)
Type: cell-based, human
Details: broad range of concentrations, 72 hours
Method: Due to its mechanism of action as a protein synthesis inhibitor, the inventor conducted an investigation into the efficacy of brusatol to inhibit prostate cancer cell line synthesis. Prostate cancer lines PC3 and LNCaP were cultivated in the presence of 1 nM, 100 nM, 1,000 nM and 10,000 nM concentrations of brusatol and 0.1% DMSO as a control.
The human prostate cancer cell lines, PC3 and LNCaP, were obtained from American Type Culture Collection (Manassas, VA). The PC3 and LNCaP cell lines were maintained in RPMI 1640 supplemented with 10% (v/v) FBS and 100 U/mL of penicillin G and 100 µg/mL of streptomycin sulfate. The cells were maintained as a monolayer in an incubator at 37° C. in a humid atmosphere with 5% CO2.

For Brusatol, the “cytotoxicity (in words)” value was “toxicity to both prostate cancer cell lines”.
